# Results taken from article PMC3835680, “Inhibition of Nutlin-Resistant HDM2 Mutants by Stapled Peptides” (PLoS ONE, 2013).
# Protein sequences, listed by entry. Tags and fused reporters are not part of them. Residues count along the entry.
# UniProt Q00987, 1-125 Q24R: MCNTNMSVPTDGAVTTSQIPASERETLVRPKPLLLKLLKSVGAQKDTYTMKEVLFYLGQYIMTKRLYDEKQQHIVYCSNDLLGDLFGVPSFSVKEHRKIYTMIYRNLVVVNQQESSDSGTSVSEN
# UniProt Q00987, 1-125 P20L: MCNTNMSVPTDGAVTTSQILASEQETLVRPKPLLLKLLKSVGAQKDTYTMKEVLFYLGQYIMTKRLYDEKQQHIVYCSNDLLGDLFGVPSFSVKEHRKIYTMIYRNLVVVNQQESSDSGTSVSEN
# UniProt Q00987, 1-125 M62A: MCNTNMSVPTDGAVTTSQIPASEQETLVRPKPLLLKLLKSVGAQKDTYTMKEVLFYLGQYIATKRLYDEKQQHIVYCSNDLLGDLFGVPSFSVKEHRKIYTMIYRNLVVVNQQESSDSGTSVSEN
# How the values were obtained:
# Assay type in all cases: binding
# HDM2 (1-125) Q24R = biological target: T1, HDM2 (1-125) Q24R (Homo sapiens, UniProt Q00987, Q24R); assay: Fluorescence anisotropy, competitive titration, HDM2 Q24R; details: Q24R compared to wild-type
# T1 construct: using purified HDM2 (1-125) and carboxyfluorescein (FAM) labeled 12-1 peptide; GST (N, cleaved yes); made in house; host or cells: E. coli BL21 DE3
# Experimental: (§1) Cells harbouring the GST fusion constructs were grown in LB medium at 37°C to an OD600 of ~0.6 and induction was carried out with 1 mM IPTG at room temperature. Cells were harvested by centrifugation and the cell pellets were resuspended in 50 mM Tris pH 8.0, 10% sucrose and then sonicated. The sample was next centrifuged for 60 mins at 17,000 g at 4°C. The supernatant was applied to a 5 mL FF GST column (Amersham) pre-equilibrated in wash buffer (50 mM Tris-HCl pH 8.0, 150 mM NaCl, 1 mM DTT). The column was then further washed by 6 volumes of wash buffer. HDM2 constructs were then purified from the column by cleavage with Precission protease (GE Lifesciences). 10 units of precission protease, in one column volume of wash buffer, were injected onto the column. The cleavage reaction was allowed to proceed overnight at 4°C. The cleaved protein was then eluted off the column with wash buffer. Protein fractions were analyzed with SDS page gel and concentrated using Centricon (3.5 kDa MWCO) concentrator. […] Protein fractions were analyzed with SDS page gel and concentrated using a Centricon (3.5 kDa MWCO) concentrator, Millipore.
# (§2) All titrations were carried out in triplicate. Curve-fitting was carried out using Prism 4.0 (GraphPad).
# HDM2 (1-125) P20L = biological target: T2, HDM2 (1-125) P20L (Homo sapiens, UniProt Q00987, P20L); assay: Fluorescence anisotropy, competitive titration, HDM2 P20L; details: P20L compared to wild-type
# T2 construct: using purified HDM2 (1-125) and carboxyfluorescein (FAM) labeled 12-1 peptide; GST (N, cleaved yes); made in house; host or cells: E. coli BL21 DE3
# Experimental: as §1, §2
# HDM2 (1-125) M62A = biological target: T3, HDM2 (1-125) M62A (Homo sapiens, UniProt Q00987, M62A); assay: Fluorescence anisotropy, competitive titration, HDM2 M62A; details: M62A compared to wild-type
# T3 construct: using purified HDM2 (1-125) and carboxyfluorescein (FAM) labeled 12-1 peptide; GST (N, cleaved yes); made in house; host or cells: E. coli BL21 DE3
# Experimental: as §1, §2
compound,measurement,setting,value
COc1ccc(C2=N[C@@H](c3ccc(Cl)cc3)[C@@H](c3ccc(Cl)cc3)N2C(=O)N2CCNC(=O)C2)c(OC(C)C)c1 [Nutlin],Change of binding affinity versus wild-type HDM2,HDM2 (1-125) Q24R,reduced affinity
same,Change of binding affinity versus wild-type HDM2,HDM2 (1-125) P20L,reduced affinity
same,Change of binding affinity versus wild-type HDM2,HDM2 (1-125) M62A,significantly reduced affinity
